Measurements: patent US20220017444A1, “BENZ[…] SURFACTANTS” (INDORAMA VENTURES OXIDES LLC, priority 2018, published 2022)

Experiment: Surface tensiometer characterization: critical micelle concentration and surface tension
Format: physicochemical
Details: surface tensiometer, FIG. 1
Text: Dibenzhydryl resorcinol ethoxylates produced in Example 2 were characterized using a surface tensiometer to determine critical micelle concentration and surface tension.

Substance: Tribenzyhydryl phenol ethoxylate
- critical micelle concentration: 16.5 mg/L
- surface properties (surface tension, critical micelle concentration) (result in words): typical for conventional nonionic surfactants
